For the assay, the target named is Sodium/potassium-transporting ATPase subunit alpha-2/alpha-3 (Rattus norvegicus, UniProt P06686+P06687). Description: Inhibition of Wistar rat brain Na+,K+-ATPase alpha2/3 after 2 hrs.

Results on one sequence are retold here after ChEMBL document CHEMBL3585273, “Discovery of Tricyclic Clerodane Diterpenes as Sarco/Endoplasmic Reticulum Ca(2+)-ATPase Inhibitors and Structure-Activity Relationships” (J Nat Prod, 2015).

pIC50: −log10 of the molar value.

On to IVERMECTIN, for which the pIC50 (as a rule, −log10 of the IC50, conventionally taken in molar units) was 5.19.
